Test results published in article PMC5346706, “Anti-metastatic effect of the TM4SF5-specific peptide vaccine and humanized monoclonal antibody on colon cancer in a mouse lung metastasis model” (Oncotarget, 2016).

The chains behind the UniProt entries cited, without tags or fusion partners. Where a name states a change or a piece, a line headed by the entry shows the natural chain unless it says otherwise.
UniProt O14894: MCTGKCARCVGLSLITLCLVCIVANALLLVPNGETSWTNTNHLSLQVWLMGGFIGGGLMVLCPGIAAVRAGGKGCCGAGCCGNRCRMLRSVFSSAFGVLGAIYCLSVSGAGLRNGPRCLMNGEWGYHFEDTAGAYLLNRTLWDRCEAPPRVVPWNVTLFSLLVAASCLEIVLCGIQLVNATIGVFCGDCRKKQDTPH

Experiments:
[1] = biological target: T1, cyclic peptide hTM4SF5EC2-C (human, disulfide bond between the two introduced cysteine residues (cyclic); biotinylated for the SPR); assay: SPR
T1 chain: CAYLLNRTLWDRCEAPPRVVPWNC

[2] = biological target: T2, Myc-tagged recombinant human TM4SF5 protein (Homo sapiens (Huh-7 cDNA), UniProt O14894); assay: western blotting; whole cell lysates of HEK 293F-EV and HEK 293F-TM4SF5 cells resolved on SDS-PAGE and probed with the antibody; conditions: one partner purified
T2 construct: human transmembrane 4 superfamily member 5 protein (TM4SF5); cDNA amplified from Huh-7 mRNA with the printed primers (5' primer holds the ATG); also called Myc-tagged hTM4SF5; hTM4SF5

B1: humanized anti-TM4SF5 monoclonal antibody hEC2-C-2 (antibody, V domains shown)
VH: EVQLVESGGGLVQPGGSLRLSCAASGFSLTSYGVTWVRQAPGKGLEWLGVIWSDGSTNYQSALISRLTISRDNSKNTAYLQMNSLRAEDTAVYYCARPSNYYYFDYWGQGTLVTVSS
VL: DIQMTQSPSSLSASVGDRVTITCKSSQSLFDRRTRKTYLAWYQQKPGKAPKLLISWASTRESGVPSRFSGSGSGTDFTLTISSLQPEDFATYYCKQSYNLFTFGQGTKVEIK
koff [1]: 1e-05 s⁻¹
binding result [2]: binds
